Assay: Test 4: Inhibition of Cellular Release of Amyloid Peptide 1-40
Type: cell-based, Chinese hamster
Conditions: Cricetulus griseus, CHO, 24 h; read-out: Amyloid-β1-40 release IC50
Method: Chinese hamster ovary cells are transfected with the human gene for amyloid precursor protein. The cells are plated at a density of 8000 cells/well into 96-well microtiter plates and cultivated for 24 hours in DMEM cell culture medium containing 10% FCS. The test compound is added to the cells at various concentrations, and the cells are cultivated for 24 hours in the presence of the test compound.

Row | SMILES | IC50 [nM]
1 | NC(=S)c1ccc(C(=O)Nc2cccc(C3(CF)COCC(N)=N3)n2)nc1 (centres unmarked) [Example 7, 5-Thiocarbamoyl-pyridine-2-carboxylic acid [6-(5-amino-3-fluoromethyl-3,6-dihydro-2H-[1,4]oxazin-3-yl)-pyridin-2-yl]-amide] | 640
2 | NC1=NC(CF)(c2ccnc(NC(=O)c3ccc(Cl)cn3)c2)COC1 (centres unmarked) [Example 14, 5-Chloro-pyridine-2-carboxylic acid [4-(5-amino-3-fluoromethyl-3,6-dihydro-2H-[1,4]oxazin-3-yl)-pyridin-2-yl]-amide] | 660

Source: patent US10035794B2, “Heterocyclic derivatives and their use in the treatment of neurological disorders” (NOVARTIS AG, priority 2011, dated 2018)
